From US9198957B2, “Treatment and prevention of bacterial vaginosis and Gardnerella vaginalis infections” (The Trustees of Columbia University in the City of New York, priority 2011, dated 2015)

Test system: strain ARG3
Assay: MIC by E-test, strain ARG3
Assay type: cell-based, Gardnerella vaginalis
Settings: Mueller-Hinton agar with 5% sheep's blood, CLSI, repeated twice

- Minimum Inhibitory Concentration (MIC): 0.125
SMILES: CCC[C@@H]1C[C@@H](C(=O)N[C@@H]([C@H]2O[C@H](SC)[C@H](O)[C@@H](O)[C@H]2O)[C@H](C)Cl)N(C)C1 [clindamycin]
